From CN117396506A (NOVARTIS AG, dated 2024)

What was measured:
重组人IL-18 = target: T1, 重组人IL-18 (human, UniProt Q14116 37-193); assay: SET, simultaneous target binding assays A (one target in excess, 500 pM) and B (mixture of both targets in serial dilution)
T1 construct: In the LPS/IL-12 assays the IL-18 is the native cytokine made by the blood cells; also called huIL-18; human IL-18

重组人IL-1β = target: T2, 重组人IL-1β (human, UniProt P01584 117-269); assay: solution equilibrium titration (SET), single-target binding assay, MSD ECL read-out; mean KD
T2 construct: In the LPS/IL-12 assays the IL-1β is the native cytokine made by the blood cells; also called huIL-1β; IL-1b

B1: bbmAb1 (bispecific antibody, human IgG1, kappa, lambda, L234A L235A)
heavy 1: not shown
light 1: not shown
heavy 2: not shown
light 2: EIVLTQSPDFQSVTPKEKVTITCRASQSIGSSLHWYQQKPDQSPKLLIKYASQSFSGVPSRFSGSGSGTDFTLTINSLEAEDAAAYYCHQSSSLPFTFGPGTKVDIKRTVAAPSVFIFPPSDEQLKSGTASVVCLLNNFYPREAKVQWKVDNALQSGNSQESVTEQDSKDSTYSLSSTLTLSKADYEKHKVYACEVTHQGLSSPVTKSFNRGEC
binding result (重组人IL-18): binds | Kd (重组人IL-1β): 2.6 pM
